Test results from article PMC8484483 (Scientific Reports, 2021).

Chains of the proteins cited; added tags and fusions are not shown. Residues count along the entry.
UniProt P28908, 19-595: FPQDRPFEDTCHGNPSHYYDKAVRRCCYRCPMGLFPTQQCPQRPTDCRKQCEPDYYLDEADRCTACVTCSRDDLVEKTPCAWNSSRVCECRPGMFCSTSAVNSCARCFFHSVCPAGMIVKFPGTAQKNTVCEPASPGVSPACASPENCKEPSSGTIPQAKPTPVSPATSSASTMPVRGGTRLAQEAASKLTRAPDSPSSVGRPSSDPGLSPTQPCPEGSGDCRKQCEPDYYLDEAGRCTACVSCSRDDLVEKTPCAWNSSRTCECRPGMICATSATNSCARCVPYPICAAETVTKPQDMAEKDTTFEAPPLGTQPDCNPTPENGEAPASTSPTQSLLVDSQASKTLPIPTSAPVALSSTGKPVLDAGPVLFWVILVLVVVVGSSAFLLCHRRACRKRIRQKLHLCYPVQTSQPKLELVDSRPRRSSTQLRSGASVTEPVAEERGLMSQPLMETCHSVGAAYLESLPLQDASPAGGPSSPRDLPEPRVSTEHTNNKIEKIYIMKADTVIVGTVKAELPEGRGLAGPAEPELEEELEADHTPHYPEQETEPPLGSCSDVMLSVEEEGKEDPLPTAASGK
UniProt P20333, 23-461: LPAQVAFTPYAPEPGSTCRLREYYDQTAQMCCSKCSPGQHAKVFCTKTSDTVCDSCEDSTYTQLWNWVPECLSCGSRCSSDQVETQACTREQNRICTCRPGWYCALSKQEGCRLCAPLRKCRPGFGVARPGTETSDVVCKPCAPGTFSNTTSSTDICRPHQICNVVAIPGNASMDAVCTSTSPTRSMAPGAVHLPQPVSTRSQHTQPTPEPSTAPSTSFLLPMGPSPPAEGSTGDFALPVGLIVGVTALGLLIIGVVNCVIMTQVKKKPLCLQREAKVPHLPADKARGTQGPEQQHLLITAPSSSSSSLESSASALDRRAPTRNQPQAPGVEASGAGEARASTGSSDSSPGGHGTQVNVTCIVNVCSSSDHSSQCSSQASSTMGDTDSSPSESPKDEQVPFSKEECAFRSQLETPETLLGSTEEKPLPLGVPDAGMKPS

Columns and labels:
[1] = target: T1, CD30 on CD30-expressing cells (Homo sapiens, UniProt P28908); test: flow cytometry on cells; antigen-expressing Ramos-Blue cells incubated with mAbs or BsAb in PBS, 5% fetal bovine serum, 0.1% sodium azide, 1 h on ice; detected with R-PE anti-human IgG Fc-gamma; conditions: one partner purified
T1 construct: CD30 expressed on CD30-RB cells; construct not described; the methods describe only how the TNFR2 cells were made; also called CD30-RB; source: CD30-expressing cells (CD30-RB), on cells

[2] = target: T2, TNFR2 on TNFR2-transfected Ramos Blue cells (human, UniProt P20333); test: as above; conditions: one partner purified
T2 construct: for the full-length cDNA no species is named; also called TNFR2-RB; TNFR2-expressing cells; source: Ramos-Blue cells, stably transfected (blasticidin, sorting, cloning), on cells

B1: anti-CD30 T104, human chimeric monoclonal antibody (antibody, V domains shown)
VH: QIQLVQSGPELKKPGETVKISCKASGYTFTDYSMHWVKQAPGKGLKWMGWINTETGEPTYADDFKGRFAFSLETSASTAYLQINNLKNEDTATYFCTEGYVFDFWGQGTTLTVSS
VL: DILLTQSPAILSVSPGERVSFSCRASRSIGTSIHWYQQRTNGSPRLLINYASESISGIPSRFSGSGSGTDFTLSINSVESEDIADYYCQQSNSWPLTFGAGTKLELK
B1: binds [1].

B2: anti-TNFR2 TR109, human chimeric monoclonal antibody (antibody, V domains shown)
VH: QVQLKESGPGLVAPSQSLSITCTVSGFSLTVYGVNWVRQPPGKGLEWLGMIWGDGSTAYNSALKSRLTITKDNSKTQVFLKMNSLQTDDTARYYCARDGRRYALDYWGQGTSVTVSS
VL: DIVLTQSPTSLAVSLGQRATISCRASESVDSYGDSFLHWYQQKPGQPPILLIYRASNLDSGIPARFSGSGSRTDFTLTINPVEADDVATYYCQQSNEDPYTFGGGTKLEIK
B2: binds [2].
